Measured values reported in PubChem BioAssay AID743247 (Broad Institute, 2014).
The list shows a part of the results, in another mix than the full data. Activity calls are given as the source filed them.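 How the source made its calls: active means mean inhibition across replicates of 30% or more, regardless of how many single replicates reach that level; inconclusive means mean under 30% yet at least half of replicates reach 30%; inactive means the rest.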

Test: blockers of fibronectin fibrillogenesis by fibroblasts – AH1F cells, Alexa488-fibronectin fluorescence, plate reader, primary screen (AID 743247);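 further: positive control wells lacked labelled fibronectin entirely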
Conditions: Alexa488-fibronectin deposition fluorescence, overnight, at 12.6 µM, hits give high values
In short: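 Measured by – fluorescence 485/525 nm · System – AH1F fibroblast monolayer, labelled fibronectin deposition · Amount – 10000 cells per well · Buffer or medium – serum-reduced DMEM (2% serum) · Doses – single dose, pinned · Also added – fluorescent fibronectin at 24 nM final · Schedule – 1 h cell attachment, overnight exposure to compound and label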

Question: For `O=P(Nc1ccccn1)(c1ccc(Br)cc1)c1ccc(Br)cc1`, which inhibition is on record?
Answer: inactive: 2.49%

Question: With `O=P(Nc1nc2ccccc2s1)(c1ccccc1)c1ccccc1` as the compound, how does the inhibition read?
Answer: inactive: 9.46%

Question: For `C[C@H]1OP(=O)(Oc2ccccc2)[C@H](O)[C@H](O)[C@H]1N=[N+]=[N-]` (some centres undefined), which inhibition is on record?
Answer: inactive: 0.968%

Question: Which inhibition does the source give for `O=P1(Nc2ncccn2)COc2ccccc2OC1` here?
Answer: inactive: -7.7%

Question: Which inhibition does the source give for `Cc1ccc(S(=O)(=O)N(CCCN)CCCc2c(C)nc(N)[nH]c2=O)cc1` here?
Answer: inactive: 4.6%

Question: With `O=[As](O)(c1cccs1)c1cccs1` as the compound, how does the inhibition read?
Answer: inactive: 4.29%

Question: With `Cc1ccc(OCC(=O)OC2CN3CCC2CC3)cc1` (centres undefined) as the compound, how does the inhibition read?
Answer: inactive: 17%

Question: With `NS(=O)(=O)c1cccc(NC(=O)COC(=O)C(O)(c2ccccc2)c2ccccc2)c1` as the compound, how does the inhibition read?
Answer: inactive: -1.97%

Question: With `O=P1(Nc2ccc(Br)cn2)COc2ccccc2OC1` as the compound, how does the inhibition read?
Answer: inactive: -10.9%

Question: Which inhibition does the source give for `Nc1cccc([As](=O)(O)c2ccccc2)c1` here?
Answer: inactive: -13.7%

Question: Which inhibition does the source give for `Cc1ccc(C(=O)OC2CN3CCC2CC3)cc1` (centres undefined) here?
Answer: inactive: 3.15%

Question: With `CC1CCC(C(C)C)C(OP(=O)(Nc2ccccn2)c2ccccc2)C1` (centres undefined) as the compound, how does the inhibition read?
Answer: inactive: -5.33%

Question: For `O=C(/C=C/c1ccccc1)OC1CN2CCC1CC2` (centres undefined), which inhibition is on record?
Answer: inactive: -7.09%

Question: Which inhibition does the source give for `CCCC1OP(=O)(Nc2ccccc2)OCC1CC` (centres undefined) here?
Answer: inactive: -19.3%

Question: For `CN(C)C1(CNC(=O)c2ccc(S(C)(=O)=O)cc2)CCCCC1`, which inhibition is on record?
Answer: inactive: 2.56%

Question: Which inhibition does the source give for `COc1ccccc1CNC(=O)COC(=O)C(O)(c1ccccc1)c1ccccc1` here?
Answer: inactive: 1.95%

Question: With `CN(C(=O)Cc1ccc(Cl)c(Cl)c1)[C@@H]1CCCC[C@H]1N1CCCC1` as the compound, how does the inhibition read?
Answer: inactive: -0.754%

Question: For `CC(C)/C=N\N=C(\N)N[N+](=O)[O-]`, which inhibition is on record?
Answer: inactive: 12.5%

Question: Which inhibition does the source give for `CCOP(=O)(Nc1ccc(C)cn1)OCC` here?
Answer: inactive: -14.5%

Question: With `CN(CCCl)Cc1cc(Cl)c(NC2=NCCN2)c(Cl)c1` as the compound, how does the inhibition read?
Answer: inactive: -0.94%

Question: Which inhibition does the source give for `CCC1=CC2Cc3nc4ccc(Cl)cc4c(N)c3C(C1)C2` (centres undefined) here?
Answer: inactive: 4.9%

Question: For `O=P1(Nc2ccccn2)COc2ccccc2OC1`, which inhibition is on record?
Answer: inactive: -10.2%

Question: With `CCOP(=O)(NC(=NC(C)c1ccccc1)NC(C)c1ccccc1)OCC` (centres undefined) as the compound, how does the inhibition read?
Answer: inactive: 0.78%

Question: For `Clc1n[nH]nc1-c1nn[nH][15n]1`, which inhibition is on record?
Answer: inactive: 0.723%

Question: For `O=P1(N(CCCl)CCCl)NCCC(C(F)(F)F)O1` (centres undefined), which inhibition is on record?
Answer: inactive: 3.79%

Question: With `CC(C)(C)C(=O)NC(Sc1ncccn1)C(Cl)(Cl)Cl` (centres undefined) as the compound, how does the inhibition read?
Answer: inactive: 1.78%

Question: Which inhibition does the source give for `CCCOP(=S)(Nc1nc(N)cc(=O)[nH]1)OCCC` here?
Answer: inactive: 12.3%

Question: With `Nc1cccc2c([As](=O)(O)O)cccc12` as the compound, how does the inhibition read?
Answer: inactive: 6.13%

Question: For `Cc1ccc(NCCc2c([N+](=O)[O-])cc([N+](=O)[O-])cc2[N+](=O)[O-])cc1`, which inhibition is on record?
Answer: inactive: -8.06%

Question: For `CCOP(=O)(Nc1cccc2ccccc12)OCC`, which inhibition is on record?
Answer: inactive: -5.34%

Question: With `O=[As](O)(O)c1cccnc1` as the compound, how does the inhibition read?
Answer: inactive: 8.49%

Question: For `COc1cc(C(=O)NCC2(N3CCOCC3)CCCCC2)cc(Cl)c1OC(C)C`, which inhibition is on record?
Answer: inactive: 2.23%

Question: For `CS(=O)(=O)c1ccc(Cl)c(NC(=O)COC(=O)C(O)(c2ccccc2)c2ccccc2)c1`, which inhibition is on record?
Answer: inactive: 9.32%

Question: Which inhibition does the source give for `O=C(OC1CN2CCC1CC2)c1ccc(Cl)cc1` (centres undefined) here?
Answer: inactive: -0.767%

Question: Which inhibition does the source give for `O=[As](O)(c1cccc(O)c1)c1cccc(O)c1` here?
Answer: inactive: -7.09%

Question: For `NC(=O)Nc1ccc([As](=O)(O)O)cc1`, which inhibition is on record?
Answer: inactive: -5.68%

Question: Which inhibition does the source give for `CN(C)C(=O)c1cc([N+](=O)[O-])cc2c1-c1c(cc([N+](=O)[O-])cc1[N+](=O)[O-])C2=O` here?
Answer: inactive: 0.749%

Question: Which inhibition does the source give for `CN(C(=O)Cc1ccc(Cl)c(Cl)c1)[C@H]1CC[C@@]2(CCCO2)C[C@@H]1N1CCCC1` here?
Answer: inactive: -5.13%

Question: For `N#CCCN(C(=O)COC(=O)C(O)(c1ccccc1)c1ccccc1)c1ccc(F)cc1`, which inhibition is on record?
Answer: inactive: 0.233%

Question: For `O=P(Nc1nccs1)(Oc1ccccc1)Oc1ccccc1`, which inhibition is on record?
Answer: inactive: -1.85%

Question: With `O=C(O)COc1ccc([As](=O)(O)O)cc1[N+](=O)[O-]` as the compound, how does the inhibition read?
Answer: inactive: 0.069%

Question: Which inhibition does the source give for `Nc1ccccc1[As](=O)(O)c1ccccc1` here?
Answer: inactive: -0.53%

Question: With `COC(=O)C1(C)COP(=O)(N2CCCCCC2)OC1` (centres undefined) as the compound, how does the inhibition read?
Answer: inactive: -6.51%

Question: Which inhibition does the source give for `CC(C)c1ccc(OP(=O)(Nc2ccccn2)Oc2ccccc2F)cc1` (centres undefined) here?
Answer: inactive: 4.97%

Question: For `ClCCSc1nnc(-c2cccnc2)o1`, which inhibition is on record?
Answer: inactive: 4.95%

Question: With `CC(C)NC(=O)NP(=O)(Oc1ccccc1)Oc1ccccc1` as the compound, how does the inhibition read?
Answer: inactive: -4.27%

Question: For `O=C(OC1CN2CCC1CC2)c1cccc2[nH]cnc12` (centres undefined), which inhibition is on record?
Answer: inactive: 8.1%

Question: With `C[As](=O)(O)c1cccc(C(=O)O)c1` as the compound, how does the inhibition read?
Answer: inactive: 5.08%

Question: With `O=[As](O)(c1ccc(O)cc1)c1ccccc1O` as the compound, how does the inhibition read?
Answer: inactive: -0.965%

Question: For `O=[N+]([O-])c1ccc(-c2cc([N+](=O)[O-])c(O)c([N+](=O)[O-])c2)cc1`, which inhibition is on record?
Answer: inactive: -3.45%

Question: With `COc1cc(C(=O)NCC2(N3CCOCC3)CCCCC2)ccc1OCC(C)C` as the compound, how does the inhibition read?
Answer: inactive: -7.35%

Question: Which inhibition does the source give for `Cc1ccc2nc3c(c(C)c2c1)CC(C(Cl)Cl)S3` (centres undefined) here?
Answer: inactive: 19.8%

Question: For `Cc1ccc(OP(=O)(Nc2ccc([N+](=O)[O-])cn2)Oc2ccc(C)cc2)cc1`, which inhibition is on record?
Answer: inactive: -2.8%

Question: Which inhibition does the source give for `[N-]=[N+]=NC1CCCCC1NC(=O)c1cc([N+](=O)[O-])cc([N+](=O)[O-])c1` (centres undefined) here?
Answer: inactive: 0.335%

Question: For `COc1ccc(N/C(=N/P(=O)(N2CCOCC2)N2CCOCC2)N2CCOCC2)cc1`, which inhibition is on record?
Answer: inactive: -2.76%

Question: For `O=[N+]([O-])c1cc(Oc2ccc([N+](=O)[O-])cc2C(F)(F)F)cc([N+](=O)[O-])c1`, which inhibition is on record?
Answer: inactive: 9.64%

Question: Which inhibition does the source give for `Cc1cc(=O)[nH]c(N[N+](=O)[O-])n1` here?
Answer: inactive: 5.53%

Question: Which inhibition does the source give for `Cc1c2c(nc3ccccc13)SC(C(Cl)Cl)C2` (centres undefined) here?
Answer: inactive: 13.7%

Question: With `COc1ccc2nc(NP(=O)(c3ccccc3)c3ccccc3)sc2c1` as the compound, how does the inhibition read?
Answer: inactive: 5.26%

Question: With `COc1cc(I)ccc1[As](=O)(O)O` as the compound, how does the inhibition read?
Answer: inactive: 0.254%

Question: Which inhibition does the source give for `O=P1(N(CCCl)CCCl)Nc2ccccc2N1` here?
Answer: inactive: 1%

Question: Which inhibition does the source give for `O=P1(N(CCCl)CCCl)OCCCN1CCCl` (centres undefined) here?
Answer: inactive: 0.579%

Question: Which inhibition does the source give for `CCOC(=O)c1ccc(NC(=O)C(C)(CCl)SC)cc1` (centres undefined) here?
Answer: inactive: -13.8%

Question: With `O=C(OC1CN2CCC1CC2)c1cccc([N+](=O)[O-])c1` (centres undefined) as the compound, how does the inhibition read?
Answer: inactive: -0.853%

Question: Which inhibition does the source give for `CCC(C)N(CC(C)C)C(=S)SC(NC(C)=O)C(Cl)(Cl)Cl` (centres undefined) here?
Answer: inactive: -4.96%

Question: With `COC(=O)C1(C)COP(=O)(N2CCCC2)OC1` (centres undefined) as the compound, how does the inhibition read?
Answer: inactive: 2.06%

Question: With `O=C(COc1ccccc1)OC1CN2CCC1CC2` (centres undefined) as the compound, how does the inhibition read?
Answer: inactive: 0.565%

Question: Which inhibition does the source give for `O=C(Nc1ccncc1[N+](=O)[O-])c1ccc([N+](=O)[O-])cc1[N+](=O)[O-]` here?
Answer: inactive: 6.2%

Question: With `O=C(O)C(=O)c1ccc(N(CCCl)CCCl)cc1` as the compound, how does the inhibition read?
Answer: inactive: -2.84%

Question: Which inhibition does the source give for `CCOC(=O)Nc1cccc([As](=O)(O)O)c1` here?
Answer: inactive: 5.61%

Question: With `O=[N+]([O-])c1ccc(Nc2ccc(Oc3ccc([N+](=O)[O-])cc3[N+](=O)[O-])cc2)c([N+](=O)[O-])c1` as the compound, how does the inhibition read?
Answer: inactive: 2.22%

Question: With `Cc1cc(SC(NC=O)C(Cl)(Cl)Cl)ncn1` (centres undefined) as the compound, how does the inhibition read?
Answer: inactive: 5.32%

Question: With `O=P(Nc1ccccn1)(c1cccc2ccccc12)c1cccc2ccccc12` as the compound, how does the inhibition read?
Answer: inactive: 7.41%

Question: Which inhibition does the source give for `CC1CCNP(=O)(N(CCCl)CCCl)O1` (centres undefined) here?
Answer: inactive: -0.237%

Question: With `O=C(O)C(O)c1ccc(N(CCCl)CCCl)cc1` (centres undefined) as the compound, how does the inhibition read?
Answer: inactive: 1.58%

Question: Which inhibition does the source give for `CCOC(=O)Nc1ccc([As](=O)(O)O)c(O)c1` here?
Answer: inactive: 9.39%

Question: For `CCCCOc1ccc(C(=O)NCC2(N3CCCCC3)CCCCC2)cc1OC`, which inhibition is on record?
Answer: inactive: 3.02%

Question: For `Cc1cc(SC(NC(=O)c2ccccc2)C(Cl)(Cl)Cl)nc(C(C)C)n1` (centres undefined), which inhibition is on record?
Answer: inactive: -2.86%

Question: With `COP(=O)(OC)N1CC1c1ccccc1` (centres undefined) as the compound, how does the inhibition read?
Answer: inactive: -6.26%
